The experiment has as its target Phosphodiesterase 4 (Homo sapiens, UniProt P27815+Q08499+Q07343+Q08493). In words: Inhibition of Human recombinant PDE4 (Phosphodiesterase 4). It counts as protein assay.

Protein sequences, listed by entry. Tags and fused reporters are not part of them. Lines headed by an entry give the natural chain unless they say otherwise; changes in a name come on top.
UniProt P27815: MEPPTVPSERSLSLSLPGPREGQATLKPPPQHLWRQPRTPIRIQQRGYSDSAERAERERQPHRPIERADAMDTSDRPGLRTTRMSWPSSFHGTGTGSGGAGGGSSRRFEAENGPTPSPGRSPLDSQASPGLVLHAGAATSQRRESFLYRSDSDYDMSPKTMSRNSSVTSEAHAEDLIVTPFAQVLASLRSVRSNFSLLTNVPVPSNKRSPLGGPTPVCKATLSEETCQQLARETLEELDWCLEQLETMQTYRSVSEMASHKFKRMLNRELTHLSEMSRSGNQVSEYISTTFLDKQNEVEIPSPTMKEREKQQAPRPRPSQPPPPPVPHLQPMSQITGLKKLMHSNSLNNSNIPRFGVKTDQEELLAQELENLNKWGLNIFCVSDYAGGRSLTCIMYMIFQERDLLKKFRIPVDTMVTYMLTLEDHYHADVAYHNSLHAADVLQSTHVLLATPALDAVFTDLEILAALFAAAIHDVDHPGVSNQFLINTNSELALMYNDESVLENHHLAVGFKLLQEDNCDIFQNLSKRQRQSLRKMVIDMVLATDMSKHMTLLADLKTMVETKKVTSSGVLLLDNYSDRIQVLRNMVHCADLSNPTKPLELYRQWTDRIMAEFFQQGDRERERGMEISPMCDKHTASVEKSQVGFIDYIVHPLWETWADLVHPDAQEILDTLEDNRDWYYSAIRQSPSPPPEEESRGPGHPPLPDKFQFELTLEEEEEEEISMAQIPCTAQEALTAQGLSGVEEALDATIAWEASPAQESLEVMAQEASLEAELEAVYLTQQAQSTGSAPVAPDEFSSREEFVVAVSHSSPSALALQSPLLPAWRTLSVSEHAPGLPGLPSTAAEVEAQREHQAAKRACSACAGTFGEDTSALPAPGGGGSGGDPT
UniProt Q08499: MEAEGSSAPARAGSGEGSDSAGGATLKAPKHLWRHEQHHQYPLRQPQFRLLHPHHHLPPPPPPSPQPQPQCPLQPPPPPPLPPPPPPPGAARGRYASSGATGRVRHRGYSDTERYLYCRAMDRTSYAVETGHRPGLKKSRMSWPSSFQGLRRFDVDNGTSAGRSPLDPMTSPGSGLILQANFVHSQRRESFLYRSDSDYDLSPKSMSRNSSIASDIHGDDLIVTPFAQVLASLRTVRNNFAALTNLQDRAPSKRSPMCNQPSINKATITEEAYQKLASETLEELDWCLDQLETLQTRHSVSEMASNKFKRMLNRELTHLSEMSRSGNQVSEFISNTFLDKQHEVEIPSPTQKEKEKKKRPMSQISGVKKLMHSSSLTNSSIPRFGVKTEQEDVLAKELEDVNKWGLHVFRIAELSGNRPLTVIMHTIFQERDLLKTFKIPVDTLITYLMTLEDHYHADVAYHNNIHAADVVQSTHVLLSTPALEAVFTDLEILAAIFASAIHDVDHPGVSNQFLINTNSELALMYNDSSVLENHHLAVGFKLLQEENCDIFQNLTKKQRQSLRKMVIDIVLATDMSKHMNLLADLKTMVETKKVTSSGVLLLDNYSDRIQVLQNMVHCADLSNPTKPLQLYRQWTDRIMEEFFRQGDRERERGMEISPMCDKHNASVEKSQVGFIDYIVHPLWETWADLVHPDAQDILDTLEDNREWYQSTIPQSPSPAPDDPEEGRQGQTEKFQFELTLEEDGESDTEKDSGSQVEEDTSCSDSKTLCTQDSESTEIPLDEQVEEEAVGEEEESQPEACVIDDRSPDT
UniProt Q07343: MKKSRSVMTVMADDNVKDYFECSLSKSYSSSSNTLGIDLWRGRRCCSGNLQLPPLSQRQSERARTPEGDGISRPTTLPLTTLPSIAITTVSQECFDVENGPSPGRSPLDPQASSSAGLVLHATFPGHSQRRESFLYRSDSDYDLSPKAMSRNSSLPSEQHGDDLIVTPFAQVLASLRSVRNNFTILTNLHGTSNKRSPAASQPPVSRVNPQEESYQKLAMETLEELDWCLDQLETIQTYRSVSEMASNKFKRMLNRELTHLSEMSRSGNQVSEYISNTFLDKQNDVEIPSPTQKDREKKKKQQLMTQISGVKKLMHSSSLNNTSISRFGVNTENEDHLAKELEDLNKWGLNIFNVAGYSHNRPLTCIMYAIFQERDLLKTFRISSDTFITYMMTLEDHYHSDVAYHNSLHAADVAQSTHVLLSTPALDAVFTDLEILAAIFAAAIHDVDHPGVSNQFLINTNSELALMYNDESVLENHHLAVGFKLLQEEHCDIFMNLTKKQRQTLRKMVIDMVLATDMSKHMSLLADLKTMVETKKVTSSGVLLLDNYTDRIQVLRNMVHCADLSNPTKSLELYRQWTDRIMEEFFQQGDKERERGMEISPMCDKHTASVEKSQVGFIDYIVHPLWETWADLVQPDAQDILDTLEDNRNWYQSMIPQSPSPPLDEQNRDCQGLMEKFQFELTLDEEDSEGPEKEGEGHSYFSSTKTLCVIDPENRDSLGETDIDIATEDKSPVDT
UniProt Q08493: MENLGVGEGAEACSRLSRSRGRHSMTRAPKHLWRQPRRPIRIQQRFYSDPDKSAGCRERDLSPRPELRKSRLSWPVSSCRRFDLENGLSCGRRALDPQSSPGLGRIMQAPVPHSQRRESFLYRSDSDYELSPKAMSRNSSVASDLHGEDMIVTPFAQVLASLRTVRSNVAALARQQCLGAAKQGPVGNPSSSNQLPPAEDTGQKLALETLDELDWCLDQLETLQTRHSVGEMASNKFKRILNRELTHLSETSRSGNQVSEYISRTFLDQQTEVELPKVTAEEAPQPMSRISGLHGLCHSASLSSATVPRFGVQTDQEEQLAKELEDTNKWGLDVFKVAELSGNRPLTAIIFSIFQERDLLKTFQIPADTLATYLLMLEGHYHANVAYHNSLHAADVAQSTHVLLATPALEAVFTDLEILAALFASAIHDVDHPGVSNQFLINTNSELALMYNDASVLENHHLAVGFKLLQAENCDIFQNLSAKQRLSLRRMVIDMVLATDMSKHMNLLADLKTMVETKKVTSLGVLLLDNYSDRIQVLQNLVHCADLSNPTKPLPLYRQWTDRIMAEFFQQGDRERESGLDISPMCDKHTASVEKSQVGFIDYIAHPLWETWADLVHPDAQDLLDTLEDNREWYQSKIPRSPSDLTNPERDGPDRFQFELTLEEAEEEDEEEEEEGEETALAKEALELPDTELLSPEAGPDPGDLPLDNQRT

Our source for the IC50 values is ChEMBL document CHEMBL1145127 (J Med Chem, 2003).

A value given as a limit tells only on which side of the number the result lay.

As usually defined, the IC50 is the point on the concentration scale where inhibition reaches its midpoint. Regarding `CN1CC(=O)N2[C@H](c3ccc4c(c3)OCO4)c3[nH]c4ccccc4c3C[C@@H]2C1=O` (stereo in doubt; 12a), the IC50 was greater than 10 µM.
